Data reported in BindingDB's records for patent US9694002 (Genentech Inc, 2017).

By UniProt entry, the sequences of proteins in these tests, tags left out.
UniProt Q15858, whole entry: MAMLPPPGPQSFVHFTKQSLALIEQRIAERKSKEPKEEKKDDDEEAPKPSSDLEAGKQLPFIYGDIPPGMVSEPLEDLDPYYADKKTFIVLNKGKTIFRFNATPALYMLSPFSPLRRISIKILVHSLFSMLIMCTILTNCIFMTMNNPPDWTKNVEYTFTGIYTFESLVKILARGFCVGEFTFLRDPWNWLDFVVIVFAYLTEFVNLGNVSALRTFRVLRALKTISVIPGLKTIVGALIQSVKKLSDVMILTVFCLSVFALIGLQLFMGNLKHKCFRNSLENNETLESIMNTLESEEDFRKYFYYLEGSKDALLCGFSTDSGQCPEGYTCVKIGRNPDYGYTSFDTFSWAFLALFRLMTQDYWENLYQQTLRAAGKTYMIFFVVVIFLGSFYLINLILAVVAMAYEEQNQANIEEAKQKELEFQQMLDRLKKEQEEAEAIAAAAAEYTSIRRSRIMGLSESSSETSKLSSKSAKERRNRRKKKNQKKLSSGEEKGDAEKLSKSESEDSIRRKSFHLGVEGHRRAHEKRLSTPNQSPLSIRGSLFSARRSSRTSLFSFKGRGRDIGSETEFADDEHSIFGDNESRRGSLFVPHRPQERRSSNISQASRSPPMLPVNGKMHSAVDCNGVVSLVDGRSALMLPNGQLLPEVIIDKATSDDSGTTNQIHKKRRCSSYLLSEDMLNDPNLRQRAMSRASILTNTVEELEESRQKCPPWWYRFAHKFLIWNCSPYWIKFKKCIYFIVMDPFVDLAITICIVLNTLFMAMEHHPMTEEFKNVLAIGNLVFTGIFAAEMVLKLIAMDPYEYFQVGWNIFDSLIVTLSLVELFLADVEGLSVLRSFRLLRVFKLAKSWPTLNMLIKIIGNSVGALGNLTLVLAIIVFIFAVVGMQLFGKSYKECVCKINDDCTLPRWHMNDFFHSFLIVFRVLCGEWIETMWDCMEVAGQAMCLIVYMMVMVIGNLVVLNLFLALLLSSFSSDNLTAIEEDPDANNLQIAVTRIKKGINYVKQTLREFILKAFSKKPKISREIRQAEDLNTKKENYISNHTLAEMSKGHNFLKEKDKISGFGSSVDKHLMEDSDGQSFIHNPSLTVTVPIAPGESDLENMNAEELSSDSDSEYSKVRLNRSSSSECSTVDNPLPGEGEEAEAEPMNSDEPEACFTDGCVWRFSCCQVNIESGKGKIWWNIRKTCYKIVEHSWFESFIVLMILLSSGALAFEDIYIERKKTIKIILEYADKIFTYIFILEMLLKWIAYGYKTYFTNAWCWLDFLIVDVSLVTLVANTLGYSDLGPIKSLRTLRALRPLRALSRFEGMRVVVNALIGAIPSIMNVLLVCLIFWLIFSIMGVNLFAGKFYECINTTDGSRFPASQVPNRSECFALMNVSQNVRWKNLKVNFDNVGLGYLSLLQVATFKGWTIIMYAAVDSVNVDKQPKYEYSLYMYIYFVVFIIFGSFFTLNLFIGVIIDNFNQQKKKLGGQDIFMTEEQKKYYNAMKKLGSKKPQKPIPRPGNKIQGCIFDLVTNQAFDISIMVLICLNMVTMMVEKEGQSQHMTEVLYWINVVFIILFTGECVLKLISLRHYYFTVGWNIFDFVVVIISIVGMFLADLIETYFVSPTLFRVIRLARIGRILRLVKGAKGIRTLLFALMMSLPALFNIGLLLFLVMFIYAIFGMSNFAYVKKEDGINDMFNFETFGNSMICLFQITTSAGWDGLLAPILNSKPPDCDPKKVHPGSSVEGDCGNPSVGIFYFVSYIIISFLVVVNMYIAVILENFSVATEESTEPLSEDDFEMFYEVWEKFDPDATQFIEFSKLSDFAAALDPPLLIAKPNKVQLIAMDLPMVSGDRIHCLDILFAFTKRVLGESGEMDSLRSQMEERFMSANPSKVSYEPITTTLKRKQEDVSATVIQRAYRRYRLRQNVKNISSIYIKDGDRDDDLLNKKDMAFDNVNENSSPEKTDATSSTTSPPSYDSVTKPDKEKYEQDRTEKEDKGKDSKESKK

Target: Sodium channel protein type 9 subunit alpha (Homo sapiens, UniProt Q15858)
Assay: Radioligand Binding Assay
Details: pH 7.4; 25 °C

CS(=O)(=O)NC(=O)c1cc(C2CC2)c(CN2CCC(Oc3ccc(F)cc3Cl)CC2)cc1F [US9694002, 505]
IC50: 0.028 µM
